PMC5541792, “Simultaneous Determination of 11 Compounds in Gualou Guizhi Granule and Pharmacokinetics Study by UPLC-MS/MS” (Journal of Analytical Methods in Chemistry, 2017)

What was measured:
[1] = Stability of analytes in rat plasma samples (method validation); assay type: in vitro ADME; settings: n = 6; for Autosampler stability (24 h) Mean: 4°C for 24 h; for Stability (24 h at room temperature) Mean: 25°C for 24 h; for Freeze-thaw stability (3 cycles) Mean: three freeze-thaw cycles at −80°C
Procedure: Stability of the analytes from plasma samples was performed by determining three different concentrations (low, middle, and high samples) in six replicates under different conditions. It included short-term stability which was assessed by keeping samples at room temperature (25°C) for 24 h, stability which was measured using samples stored at 4°C for 24 h, and freeze-thaw stability that was determined after three freeze-thaw cycles at −80°C.

[2] = Pharmacokinetic study in rats after oral administration of GLGZG (UPLC-MS/MS of plasma); assay type: in vivo; settings: rat plasma, male SD rats, oral GLGZG 3.6 g·(kg·day)^−1, n = 6
Procedure: Chromatographic separation was performed on an Waters CORTECS C18 (2.1 × 100 mm, 1.6 μm) with the column temperature at 45°C. The mobile phase was composed of 0.1% formic acid in water (A) and acetonitrile (B) with a gradient program (0–0.5 min from 8% to 10% B; 0.5–2.5 min from 10% to 15% B; 2.5–4.0 min from 15% to 60% B; 4.0–5.0 min from 60% to 95% B; 5.0–6.5 min 95% B). The flow rate was 0.25 mL/min and the injection volume was 1 μL.
Mass spectrometry was operated using a Waters (Milford, MA) Xevo TQMS with an electrospray ion source (ESI) in the negative ion multiple reaction monitoring (MRM) mode. The other detailed MS parameters were as follows: drying gas: N2 (purity of 99.9%), 15 L/min, nebulizing gas: 50 L/min, capillary voltage: 2.5 kv.
Plasma samples (100 μL of plasma) and IS working solutions (10 μL of swertiamarin, kaempferol-3-O-rutinoside, and ginsenoside Rb1) were combined and briefly vortex-mixed for 3 min followed by the addition of 4-fold acetonitrile. Then the mixture was centrifuged at 12000 rpm for 10 min. The supernatant was transferred to a clean tube and concentrated up to dryness; the residue was dissolved in 100 μL 50% methanol. Finally, 1 μL aliquot was injected into UPLC-MS/MS system for analysis.
Six male SD rats, weighing 250 ± 20 g, were provided by Experimental Animal Research Center of Fujian TCM University (Fuzhou, China). And they were housed at controlled environmental conditions (temperature: 23 ± 2°C, relative humidity: 55 ± 10%) with free access to standard laboratory food and water. The rats were fasted for 12 h but with access to water before being given GLGZG (3.6 g·(kg·day)^−1). Blood samples of 0.3 mL were collected in heparin containing tubes from epicanthic veins of rats by capillary tube before dose (0 h) and at 5 min, 10 min, 20 min, 0.5 h, 1 h, 1.5 h, 2 h, 3 h, 6 h, 9 h, and 12 h. Then they were centrifuged at 12000 rpm for 10 min. The supernatant liquor was collected and frozen at −20°C until use.
The validated UPLC-MS/MS method was successfully applied to the PK studies of eleven analytes following oral administration of GLGZG to individual male rats (n = 6). The main pharmacokinetic parameters were summarized in Table 8 and the mean plasma concentration-time profiles of the eleven analytes were illustrated in Figure 3.

[3] = middle QC nominal concentration

Compound | Autosampler stability (24 h) Mean ([1]; low QC nominal concentration) [%] | Stability (24 h at room temperature) Mean ([1]; high QC nominal concentration) [%] | Stability (24 h at room temperature) Mean ([1]; low QC nominal concentration) [%] | Stability (24 h at room temperature) Mean [1, 3] [%] | AUC(0–∞) [2] [mg·L/min] | MRT(0–∞) [2] [h] | T 1/2z [2] [h] | T max [2] [h] | Vz/F [2] [L/kg] | Autosampler stability (24 h) Mean ([1]; high QC nominal concentration) [%] | Autosampler stability (24 h) Mean [1, 3] [%] | Freeze-thaw stability (3 cycles) Mean ([1]; high QC nominal concentration) [%] | Freeze-thaw stability (3 cycles) Mean ([1]; low QC nominal concentration) [%] | Freeze-thaw stability (3 cycles) Mean [1, 3] [%]
O=C(/C=C/c1ccc(O[C@@H]2O[C@H](CO)[C@@H](O)[C@H](O)[C@H]2O)cc1)c1ccc(O)cc1O [Isoliquiritin, isoliquiritin] | 105.18 | 98.59 | 100.74 |  |  |  |  |  |  |  |  |  |  | 
O=C1C[C@@H](c2ccc(O[C@@H]3O[C@H](CO)[C@@H](O)[C@H](O)[C@H]3O)cc2)Oc2cc(O)ccc21 [Liquiritin, liquiritin] | 112.48 |  |  | 110.81 |  |  |  |  |  |  |  |  |  | 
isoliquiritin apioside | 102.25 | 98.59 | 101.13 | 101.45 | 18.90 ± 3.20 | 5.2583 ± 0.7327 | 4.077 ± 0.5693 | 0.5833 ± 0.2042 | 378.57 ± 56.73 | 112.48 | 106.88 | 96.66 | 109.53 | 93.01
liquiritin apioside [Liquirtin apioside] | 95.66 | 104.43 | 111.24 | 96.07 | 44.70 ± 9.12 | 5.3248 ± 1.029 | 3.9105 ± 1.012 | 0.5 ± 0 | 152.93 ± 31.84 | 105.23 | 90.88 | 94.78 | 107.20 | 93.95
